System: Sprague-Dawley rats
Test: Blood glucose depression by intracolonically administered bovine pancreatic insulin with absorption enhancer
Conditions: enhancer dose 25 mg/Kg; insulin 7 mg/Kg; procedure of Example 12

Compound: CCCCCCNC(=O)c1ccc(NC(=O)CCC(=O)O)cc1O [Example 16]
- 50% depression at 60 min. (blood glucose from basal level): positive

— patent US20070269494A1, “Compositions and methods for enhancing active agent absorption” (Nexus Pharma, Inc., priority 2006, published 2007)
